Consider two compounds from PubChem BioAssay AID1715 (Vanderbilt High Throughput Screening Facility, 2009).

Protein sequences, listed by entry. Tags and fused reporters are not part of them. Lines headed by an entry give the natural chain unless they say otherwise; changes in a name come on top.
UniProt Q9H2X9: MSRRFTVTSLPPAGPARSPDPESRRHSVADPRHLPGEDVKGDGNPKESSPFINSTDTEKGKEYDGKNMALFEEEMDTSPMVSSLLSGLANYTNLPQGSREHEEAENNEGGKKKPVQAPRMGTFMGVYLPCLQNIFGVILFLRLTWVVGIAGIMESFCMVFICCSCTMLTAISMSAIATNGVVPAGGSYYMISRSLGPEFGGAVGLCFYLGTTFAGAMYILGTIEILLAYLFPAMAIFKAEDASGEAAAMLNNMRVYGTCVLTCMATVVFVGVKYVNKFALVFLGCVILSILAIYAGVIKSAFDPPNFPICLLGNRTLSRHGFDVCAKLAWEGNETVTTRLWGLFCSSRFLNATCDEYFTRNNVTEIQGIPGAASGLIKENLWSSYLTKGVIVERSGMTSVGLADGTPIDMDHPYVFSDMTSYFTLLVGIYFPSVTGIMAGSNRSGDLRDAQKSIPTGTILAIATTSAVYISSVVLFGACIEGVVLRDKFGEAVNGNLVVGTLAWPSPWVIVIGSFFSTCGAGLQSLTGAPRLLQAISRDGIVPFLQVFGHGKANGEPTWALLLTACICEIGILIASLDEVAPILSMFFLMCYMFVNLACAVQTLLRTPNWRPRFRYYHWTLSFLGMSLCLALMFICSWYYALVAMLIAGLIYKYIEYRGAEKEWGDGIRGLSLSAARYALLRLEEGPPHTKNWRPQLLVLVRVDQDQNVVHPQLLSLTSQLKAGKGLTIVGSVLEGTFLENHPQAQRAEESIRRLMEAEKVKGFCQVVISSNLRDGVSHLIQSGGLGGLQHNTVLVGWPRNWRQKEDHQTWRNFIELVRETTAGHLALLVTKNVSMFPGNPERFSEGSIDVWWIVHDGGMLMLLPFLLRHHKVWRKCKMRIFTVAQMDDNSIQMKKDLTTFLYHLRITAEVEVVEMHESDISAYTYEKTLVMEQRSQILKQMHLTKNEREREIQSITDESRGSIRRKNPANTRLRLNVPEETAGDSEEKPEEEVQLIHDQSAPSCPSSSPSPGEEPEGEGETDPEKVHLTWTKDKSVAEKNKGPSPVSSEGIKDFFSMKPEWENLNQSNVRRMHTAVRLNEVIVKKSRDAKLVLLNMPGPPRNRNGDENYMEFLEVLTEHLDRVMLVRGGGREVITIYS

Only a part is listed here, and it is no random draw. Results filed as inconclusive are left out. The source made the active and inactive calls.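 Rule for the calls: active = thallium flux slope more than 3 SD above or below the plate's solvent-only control mean, mostly below; inconclusive = the two repeat wells disagreed; inactive = no significant shift from solvent-only controls.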

The target in the assay is Solute carrier family 12 member 5 (Homo sapiens) (UniProt Q9H2X9). In words: KCC2 modulators without ouabain present, confirmation, cell-based, HEK293 KCC2, thallium flux, FluoZin2, secondary assay 2 (AID 1715).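 Note: raw slope with 0.1% DMSO as baseline and bumetanide as block control.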 The conditions noted are these: HEK293-KCC2, thallium flux FluoZin2 fluorescence; at 10 µM; actives lie on both sides; F/F0 rise rate, 10–20 s post-thallium.
In the case of `O=c1c2cc([N+](=O)[O-])ccc2[nH]c2c([N+](=O)[O-])cc([N+](=O)[O-])cc12`, the normalized thallium flux was inactive: 0.029.
The same measure for `C[N+]1=C2C=CC=CC=C2SC12C([N+](=O)[O-])=CC([N+](=O)[O-])=C[C-]2[N+](=O)[O-]` (configuration not stated): active: 0.0386.
